Measured values taken from patent publication US4299915A (priority 1977, dated 1981).

Legend:
[1] = system: S. typhimurium strain TM35; assay: Forward mutation assay (8-azaguanine resistance) in bacterial cells; conditions: 2 hour exposure; relatively low concentrations
[2] = system: 8AG^R mutant fraction of S. typhimurium cultures; assay: Phenotypic expression: 8AG^R mutant fraction during grow-back after treatment; conditions: hourly samples, incubation in Minimal E post-treatment

N-methyl-N'-nitro-N-nitrosogunanidine
induced mutant fractions (M.F.) [1]: significantly higher than background levels
8AG^R mutant fraction when cultures are allowed to grow before plating [2]: drops significantly and then stabilizes at a constant level
